Tested on: HCV subgenomic replicon of genotype 1b
Format: cell-based, Hepatitis C Virus

rIFNa-2b: Recombinant human interferon alpha-2b, positive antiviral control in the HCV replicon assay
Antiviral Activity EC50/nM: 0.11 IU/mL

Source: patent US8354433B2, “Anti-inflammatory agents as virostatic compounds” (4SC AG, priority 2009, dated 2013)
